Assay results from PMC5755735, “Discovery of indolylpiperazinylpyrimidines with dual-target profiles at adenosine A2A and dopamine D2 receptors for Parkinson's disease treatment” (PLoS ONE, 2018).

Protein sequences, listed by entry. Tags and fused reporters are not part of them.
UniProt P14416, whole entry: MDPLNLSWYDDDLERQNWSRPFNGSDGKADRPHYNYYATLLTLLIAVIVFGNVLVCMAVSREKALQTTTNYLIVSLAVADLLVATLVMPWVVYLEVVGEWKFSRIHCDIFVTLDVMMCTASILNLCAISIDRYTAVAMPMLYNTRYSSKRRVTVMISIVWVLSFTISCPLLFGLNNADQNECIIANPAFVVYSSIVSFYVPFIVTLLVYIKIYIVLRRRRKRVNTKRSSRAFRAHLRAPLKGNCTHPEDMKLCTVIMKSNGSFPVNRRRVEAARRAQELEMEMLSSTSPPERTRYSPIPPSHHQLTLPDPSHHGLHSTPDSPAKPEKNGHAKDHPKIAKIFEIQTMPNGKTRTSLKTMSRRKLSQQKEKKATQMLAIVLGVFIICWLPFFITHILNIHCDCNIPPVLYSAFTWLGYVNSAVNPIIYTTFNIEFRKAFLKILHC

Target: human dopamine D2 receptor (Homo sapiens, UniProt P14416)
Assay: D2R-proteopolymersomes-based fluorescence competition assay with BODIPY-NAPS
Format: binding
Parameters: made in house; host or cells: in vitro (cell-free) synthesis, inserted into polymersomes
Experimental: In addition to the human A2A receptor binding affinity assay, the newly synthesized IPP derivatives were further examined for their binding affinity toward human dopamine D2 receptor. […] The mixture was then incubated with solutions containing eight different concentrations (ranging from 3 nM to 0.3 mM) of compounds 5 and 6, and the measured fluorescence intensity against ligand concentration was plotted accordingly (Fig 5A and 5B).
Polymersomes (ABA triblock-copolymer and BD21 diblock-copolymer: ABA stands for PMOXA-PDMS-PMOXA; A = PMOXA = poly(2-methyloxazoline); B = PDMS = poly(dimethylsiloxane) and BD21 stands for [PBd]22-b-[PEO]13; PBd/PEO = polybutadiene/polyethylene oxide) preparation, cloning and in vitro synthesis of dopamine D2 receptor, and purification of proteopolymersomes were performed following previously described procedures. For the replacement assay, ABA-polymersomes were covalently attached to an amino-functionalized glass slide, which was then treated with isopropanol, ultrapure water and a N2-stream. […] Program ImageJ was used for determination of fluorescence intensities.

EC50 (+ D2-ACM (D2R-proteopolymersomes), read-out: EC50 (D2 receptor, displacement of BODIPY-NAPS)): 200 nM | EC50 (+ heated D2-ACM: D2R-proteopolymersomes denatured with heat, read-out: EC50 (heated D2-ACM, non-binding control)): 300 nM
SMILES: CCCN(CCc1ccccc1)C1CCc2c(O)cccc2C1 (racemic) [(±)-PPHT.HCl, (±)-2-(N-phenethyl-N-propyl)amino-5-hydroxytetralin hydrochloride, reference compound]

Where a name gives a salt, the structure may show the parent alone. Read-outs that look alike come from different tables or passages of the source.
